The test system of the test is T2 cells. The test is described as follows: Determination of recognition efficiency (RE): 51Cr-release lysis of peptide-pulsed T2 targets by CTL clones. The test is classed as cell-based, human. The following applies: target cells pulsed with native peptide. Here is the method: FIGS. 3A-3J. Endogenous CTL clones have higher RE than vaccine-elicited CTL clones. CTL clones representing different tetramer^+ populations in each patient expressing different V-beta, were assayed for lysis of T2 cells pulsed with various dilutions of G209n, G209-2M, M27, or M26 peptides in ^51Cr-release cytotoxicity assays. All assays were performed in triplicate and each clone was assayed twice. Error bars reflect variation between two separate assays. 3a.-c. CTL clones 476.105 and 132.1 were assayed for lysis of T2 cells pulsed with 10-fold dilutions of a. native or c. heteroclitc peptide at concentrations ranging from 100 fg/ml to 100 ng/ml. b. CTL clones 476.105 and 132.1 were assayed for lysis of Malme-3M melanoma cells. d.-e. […] Correlation coefficients were 0.66 for MART-specific clones and 0.81 for gp100-specific clones. f.-i. Endogenous (461 and 132) and vaccine-induced (517, 520, 422 and 476) CTL clones were compared for RE in lysing target cells. f-g. Target cells were pulsed with native peptides (f.) M27 and (g.) G209n. Mean RE (weighted) for each response is indicated with horizontal bars. Weighted means were based on all clones, not only those assayed, and were estimated by summing the RE of each analyzed clone multiplied by the number of total clones expressing the same V-beta in each patient. Weighted means were: 517: 5.7; 520: 7.0; 461: 7.9; 422: 9.7; 476: 9.9; and 132: 11.2. […] Target cells were pulsed with heteroclitic peptides (h.) M26 and (i.) G209-2M. j. […]
2. Determination of recognition efficiency (RE): ^51Chromium (^51Cr)-labeled T2 targets were pulsed with a range of peptide concentrations, generally starting at 10^−7 M and decreasing by log steps to 10^−13 M. T cell clones were incubated with T2 targets at 10:1 E:T ratios for 4 hours, then ^51Cr release was measured and percentage cytotoxicity calculated by standard methods. Prior to each cytotoxicity assay, clones underwent ficoll-hypaque centrifugation to remove dead feeder cells, and were determined to be >80% CD8+ tetramer+ T cells by FACS. […]

In the case of “M27: native MART peptide used to pulse target cells [reference compound]”, the “Mean RE (weighted)” value runs as follows: (CTL clones of patient 461 (endogenous)) 7.9; (CTL clones of patient 517 (vaccine-induced)) 5.7; (CTL clones of patient 520 (vaccine-induced)) 7.0.

These data come from patent publication US7598223B2, “Methods for producing target cell reactive lymphocytes” (The Board of Trustees of the Leland Stanford Junior …, priority 2004, dated 2009).
